According to patent publication US11274079B2 (DALIAN INSTITUTE OF CHEMICAL PHYSICS, CHINESE ACADEMY OF …, priority 2018, dated 2022):
Counter-ions that a name gives are not always drawn. Like-named read-outs stand apart in the source and are kept apart here.

By UniProt entry, the sequences of proteins in these tests, tags left out. Where a name states a change or a piece, a line headed by the entry shows the natural chain unless it says otherwise.
UniProt P11229: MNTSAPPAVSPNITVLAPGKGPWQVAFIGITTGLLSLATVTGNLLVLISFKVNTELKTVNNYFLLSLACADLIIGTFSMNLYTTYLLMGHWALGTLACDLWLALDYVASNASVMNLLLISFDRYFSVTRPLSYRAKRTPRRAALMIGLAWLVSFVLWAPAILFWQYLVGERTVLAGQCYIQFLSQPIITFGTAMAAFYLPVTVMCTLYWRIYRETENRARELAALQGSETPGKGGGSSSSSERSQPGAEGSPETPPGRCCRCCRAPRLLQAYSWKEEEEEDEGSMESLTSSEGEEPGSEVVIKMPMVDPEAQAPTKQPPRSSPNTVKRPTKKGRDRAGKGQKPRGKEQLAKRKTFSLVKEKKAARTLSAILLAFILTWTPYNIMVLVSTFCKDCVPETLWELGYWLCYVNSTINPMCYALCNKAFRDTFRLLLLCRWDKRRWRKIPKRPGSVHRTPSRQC
UniProt P20309, whole entry: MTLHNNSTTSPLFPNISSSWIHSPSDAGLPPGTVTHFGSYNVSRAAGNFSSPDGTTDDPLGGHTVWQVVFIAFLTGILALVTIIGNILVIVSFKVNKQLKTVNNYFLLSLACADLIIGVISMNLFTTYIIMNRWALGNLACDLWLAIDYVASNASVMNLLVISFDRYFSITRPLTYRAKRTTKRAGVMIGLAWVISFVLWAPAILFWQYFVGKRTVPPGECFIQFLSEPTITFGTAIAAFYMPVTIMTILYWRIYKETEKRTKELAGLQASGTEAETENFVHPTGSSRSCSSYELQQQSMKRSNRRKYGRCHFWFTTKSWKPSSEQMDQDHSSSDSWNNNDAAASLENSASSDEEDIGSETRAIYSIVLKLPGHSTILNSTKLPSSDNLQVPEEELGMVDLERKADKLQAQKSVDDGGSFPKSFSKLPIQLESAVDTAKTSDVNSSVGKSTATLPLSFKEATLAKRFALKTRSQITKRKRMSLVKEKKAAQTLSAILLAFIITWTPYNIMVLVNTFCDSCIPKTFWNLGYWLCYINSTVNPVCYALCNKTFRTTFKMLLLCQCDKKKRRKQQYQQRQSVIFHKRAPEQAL

Key:
[1] = target: T1, M1 receptor (Homo sapiens, UniProt P11229); experiment: DMR assay, antagonism of acetylcholine in CHO-K1 cells stably transfecting the M1 receptor; format: cell-based; details: for IC50: DMR, acetylcholine 1 μM, 1 h pretreatment, time point 5 min; for antagonistic activity against the M1 receptor, in words: structure-activity comparison with parent compound
T1 construct: expressed in transfected cells; host or cells: CHO-K1
Method: (§1) The present invention relates to the antagonistic activity of the compound against the muscarinic receptor, which is primarily assessed by a cell-level dynamic mass redistribution (DMR) assay method. All tests are carried out on Epic platform, wherein the target model of the muscarinic receptor M1 is the CHO-K1 ceil model stably transfecting the M1 receptor, the target model of M3 is the HT-29 cell model endogenously highly expressing the M3 receptor, and the selected probe molecule is acetylcholine. Tire probe molecule acetylcholine is dissolved in water, while all other compounds are dissolved in DMSO.
(§2) The inoculated cell plate is placed in a cell incubator for culture for 12 h until the cell growth and fusion degree reaches about 95%, and the activity assay is carried out. The culture medium is sucked from the cultured ceils, the buffer salt specified by the test is added with a volume of 30 μL per orifice and is stabilized for 1 h. After the baseline is stable, a 2-min baseline is established, and different concentrations of compounds to be tested are added to test the cultured cells for 1 h. After the cells are pretreated with the compounds to be tested for 1 h, the 2-min baseline is re-established, and acetylcholine having a concentration of 1 μM is added to test the cultured cells for 1 h.

[2] = target: T2, M3 receptor (Homo sapiens, UniProt P20309); experiment: DMR assay, antagonism of acetylcholine in HT-29 cells endogenously expressing the M3 receptor; format: cell-based; details: for IC50: DMR, acetylcholine 16 μM, 1 h pretreatment, time point 30 min; for antagonistic activity against the M3 receptor, in words: structure-activity comparison with parent compound
T2 construct: HT-29 cell model endogenously highly expressing the M3 receptor; endogenous in cells; host or cells: HT-29
Method: as §1
as §2, with “20” for “12”, “cells,” for “ceils,”, “h.” for “h. After the cells are pretreated with the compounds to be tested for 1 h, the 2-min baseline is re-established, and acetylcholine having a concentration of 1 μM is added to test the cultured cells for 1 h.”

[3] = M1 Receptor IC50, CHO-K1-M1 cells

SMILES	IC50 [1, 3]	IC50 ([2]; M3 Receptor IC50, HT-29 cells)	antagonistic activity against the M3 receptor, in words [2]	other results
Cc1ccc(O)c(C(CC2CCCCN2C)c2ccccc2)c1 (stereo not shown)	26.5 ± 2.5 nM	151 ± 15.3 nM		
CCc1ccc(O)c(C(CC2CCCCN2C)c2ccccc2)c1 (stereo not shown) [listing 1 of 2 here]				IC50 ([1]; CHO-K1-M1 cells, read-out: M1 Receptor IC50): 45.6 ± 7.8 nM; IC50 ([2]; HT-29 cells, read-out: M3 Receptor IC50): 10.5 ± 1.1 nM
CCc1ccc(O)c(C(CC2CCCCN2C)c2ccccc2)c1 (stereo not shown) [listing 2 of 2 here]	9.4 ± 1.3 nM	109 ± 9 nM		
Cc1ccc(O)c(C(CC2CCCCN2C)c2ccccc2)c1 (single isomer, unassigned) [listing 1 of 3 here]	11.7 ± 1.6 nM	40.7 ± 10.6 nM		
Cc1ccc(O)c(C(CC2CCCCN2C)c2ccccc2)c1 (single isomer, unassigned) [listing 2 of 3 here]	11.7 ± 1.6 nM	40.7 ± 10.6 nM		
Cc1ccc(O)c(C(CC2CCCCN2C)c2ccccc2)c1 (single isomer, unassigned) [listing 3 of 3 here]	31.7 ± 11.6 nM	120 ± 35.9 nM		
Cc1ccc(O)c(C(CC2CCCCN2C)c2ccccc2)c1 (single isomer, unassigned) [Hydrochloride]	70.8 ± 9.2 nM	290 ± 32.8 nM		
CN1CCCCC1CC(c1ccccc1)c1ccccc1O (single isomer, unassigned) [I-2a-Cl, 2-[2-(2-hydroxy-phenyl)-phenethyl]-N-methylpiperidine hydrochloride]	250 ± 176 nM	74.6 ± 33.9 nM		
CCc1ccc(O)c(C(CC2CCCCN2C)c2ccccc2)c1 (stereo not shown) [Hydrochloride]	46.9 ± 3.3 nM	275 ± 248 nM	decreased	antagonistic activity against the M1 receptor, in words ([1]; Hydrochloride): decreased
Cc1ccc(O)c(C(CC2CCCCN2C)c2ccccc2)c1 (stereo not shown) [Hydrochloride]			decreased	antagonistic activity against the M1 receptor, in words [1]: decreased
CN1CCCCC1CC(c1ccccc1)c1ccccc1O (stereo not shown) [I-2a-Cl, 2-[2-(2-hydroxy-phenyl)-phenethyl]-N-methylpiperidine hydrochloride]			decreased	antagonistic activity against the M1 receptor, in words [1]: decreased
CN1CCCCC1CC(c1ccccc1O)c1ccccc1O (stereo not shown) [I-3-Cl, 2-[2,2-bis(2-hydroxyphenyl)-ethyl]-N-methylpiperidine Hydrochloride]			decreased	antagonistic activity against the M1 receptor, in words [1]: decreased
CN1CCCCC1CC(c1ccccc1)c1ccccc1O (stereo not shown) [II-2a, 2-[2-(2-hydroxy-phenyl)phenethyl]-N-methylpiperidine]	29.2 ± 6.5 nM	36.5 ± 5 nM		
